# Data reported in patent US12295964B2, “Treating pain associated with chemotherapy-induced peripheral neuropathy” (MEDICON PHARMACEUTICALS, INC., priority 2021, dated 2025).
# Tested on: paclitaxel-induced CIPN in C57/BL/6J mice
# Assay: Comparison with sulindac, lidocaine and pregabalin in paclitaxel CIPN, mechanical allodynia (PWT, von Frey)
# Settings: pregabalin 10 mg/kg orally once, one hour before measurement
smiles,measurement,value
CC(C)C[C@H](CN)CC(=O)O [pregabalin],"PWT, g Mean ± SEM",1.28 ± 0.10 g
